Ends that are not written are not given here.
Molecular target: human TLR 1 and 2 (Homo sapiens, UniProt O60603+Q15399)
Experiment: NF-κB SEAP reporter assay in HEK293 cells expressing TLR 1 and 2
Conditions: TLR1/2-expressing HEK293 cells; 0, 0.01, 0.1, 1.0 μg; 5 hours exposure; FIG. 3

By UniProt entry, the sequences of proteins in these tests, tags left out. Residues count along the entry.
UniProt O60603, 21-784: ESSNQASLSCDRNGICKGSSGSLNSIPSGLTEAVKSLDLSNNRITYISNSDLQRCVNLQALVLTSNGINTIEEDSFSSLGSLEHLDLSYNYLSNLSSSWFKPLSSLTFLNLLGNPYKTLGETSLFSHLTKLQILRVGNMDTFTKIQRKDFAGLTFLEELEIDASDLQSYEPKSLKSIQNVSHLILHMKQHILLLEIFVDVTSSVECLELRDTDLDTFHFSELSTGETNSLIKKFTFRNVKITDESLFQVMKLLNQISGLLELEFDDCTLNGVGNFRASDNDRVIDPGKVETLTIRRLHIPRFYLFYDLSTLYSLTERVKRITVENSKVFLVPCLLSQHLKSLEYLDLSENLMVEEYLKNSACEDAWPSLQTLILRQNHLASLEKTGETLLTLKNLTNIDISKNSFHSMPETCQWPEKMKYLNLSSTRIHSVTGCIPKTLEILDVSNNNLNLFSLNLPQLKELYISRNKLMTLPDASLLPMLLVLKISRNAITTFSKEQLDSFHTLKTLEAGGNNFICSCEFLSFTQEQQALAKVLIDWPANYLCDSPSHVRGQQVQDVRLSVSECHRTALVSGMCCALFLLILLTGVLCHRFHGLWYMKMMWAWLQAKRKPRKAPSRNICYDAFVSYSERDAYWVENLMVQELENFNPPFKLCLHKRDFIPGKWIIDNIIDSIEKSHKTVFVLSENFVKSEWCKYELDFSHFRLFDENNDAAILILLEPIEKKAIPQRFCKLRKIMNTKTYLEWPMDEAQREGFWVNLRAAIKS
UniProt Q15399, 25-786: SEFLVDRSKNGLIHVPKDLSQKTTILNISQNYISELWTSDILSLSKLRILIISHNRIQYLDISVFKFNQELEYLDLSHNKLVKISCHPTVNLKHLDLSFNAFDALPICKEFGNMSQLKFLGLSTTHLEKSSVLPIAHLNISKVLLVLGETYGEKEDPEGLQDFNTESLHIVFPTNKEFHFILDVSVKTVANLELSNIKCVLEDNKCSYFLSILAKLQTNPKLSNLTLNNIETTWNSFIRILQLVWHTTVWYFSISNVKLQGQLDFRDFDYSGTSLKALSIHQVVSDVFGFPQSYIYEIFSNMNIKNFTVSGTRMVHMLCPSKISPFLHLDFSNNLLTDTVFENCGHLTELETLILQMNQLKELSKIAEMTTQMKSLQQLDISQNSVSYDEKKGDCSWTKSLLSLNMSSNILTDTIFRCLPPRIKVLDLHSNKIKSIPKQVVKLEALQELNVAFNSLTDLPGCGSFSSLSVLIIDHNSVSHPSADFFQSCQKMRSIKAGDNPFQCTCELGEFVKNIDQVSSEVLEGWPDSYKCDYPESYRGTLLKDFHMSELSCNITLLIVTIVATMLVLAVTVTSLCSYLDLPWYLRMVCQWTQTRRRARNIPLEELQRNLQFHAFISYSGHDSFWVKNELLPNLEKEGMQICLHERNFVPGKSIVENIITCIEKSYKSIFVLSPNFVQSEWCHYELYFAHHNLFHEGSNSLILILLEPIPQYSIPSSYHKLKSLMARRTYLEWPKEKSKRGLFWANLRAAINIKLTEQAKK

Substance: Pam3Cys-GGEKAAEAPAAEAP [Lip peptide MC58]
- NF-κB activation (relative 650 nm optic density, SEAP): acted as a TLR1 and TLR2 agonist in a concentration dependent manner
